Laboratory results: patent US10577373B2, “TYK2 inhibitors and uses thereof” (Nimbus Lakshmi, Inc., priority 2017, dated 2020)

Amino acid sequences for entries named in this document (tags omitted). Residues count along the entry.
UniProt O60674, 849-1124 limits assumed: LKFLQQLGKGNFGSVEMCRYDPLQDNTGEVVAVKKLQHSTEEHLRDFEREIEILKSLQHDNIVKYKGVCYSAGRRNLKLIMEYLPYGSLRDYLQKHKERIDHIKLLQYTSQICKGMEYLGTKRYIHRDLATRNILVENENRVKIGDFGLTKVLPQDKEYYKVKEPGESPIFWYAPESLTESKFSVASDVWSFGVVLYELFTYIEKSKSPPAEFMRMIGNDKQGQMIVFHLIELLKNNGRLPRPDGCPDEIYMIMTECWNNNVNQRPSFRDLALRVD
UniProt P29597, 897-1176 limits assumed: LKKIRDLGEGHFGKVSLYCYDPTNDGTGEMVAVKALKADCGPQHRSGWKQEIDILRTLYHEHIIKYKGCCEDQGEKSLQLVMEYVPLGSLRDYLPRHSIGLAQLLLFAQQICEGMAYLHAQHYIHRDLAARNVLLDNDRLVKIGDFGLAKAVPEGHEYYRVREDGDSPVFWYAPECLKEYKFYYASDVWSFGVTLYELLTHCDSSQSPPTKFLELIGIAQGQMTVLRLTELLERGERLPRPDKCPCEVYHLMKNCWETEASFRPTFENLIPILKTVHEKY

Assays:
JAK2 kinase domain (JH1) = JAK2 kinase domain (JH1) (Homo sapiens (Human), UniProt O60674); test: JAK2 Radioactive Kinase Assay; assay type: biochemical; settings: ATP 10 μM
Tyk2 kinase domain (JH1) = Tyk2 kinase domain (JH1) (Homo sapiens (Human), UniProt P29597); test: Tyk2 Radioactive Kinase Assay; assay type: biochemical; settings: ATP 10 μM

Row | SMILES | JAK2 JH1% Inhibition @ 10 μM (JAK2 kinase domain (JH1); compound at 10 μM) | Tyk2 JH1% Inhibition @ 10 μM (Tyk2 kinase domain (JH1); compound at 10 μM) | JAK2 JH1% Inhibition @ 10 μM (JAK2 kinase domain (JH1); 10 μM compound) | Tyk2 JH1% Inhibition @ 10 μM (Tyk2 kinase domain (JH1); 10 μM compound)
1 | CNc1cc(Nc2cccn([C@@H]3CCCOC3)c2=O)nc2c(C(=O)N[C@H]3CCC[C@H](O)C3)cnn12 | A (percent inhibition at 10 μM lower than 50) | A (percent inhibition at 10 μM lower than 50) | – | –
2 | CNc1cc(Nc2cccn(-c3cncc(C)c3)c2=O)nc2c(C(=O)NC3CC3)cnn12 | – | – | A (percent inhibition at 10 μM lower than 50) | A (percent inhibition at 10 μM lower than 50)
